Results on one substance are retold here after patent US20090099029A1, “Methods and substrates for conducting assays” (Invitrogen Corporation, priority 2005, published 2009).

For this series, the system named is kinases of Table 6 on Myelin Basic Protein (MBP). As to the kind of experiment: Kinase assay using MBP substrate, ProQ Diamond stain (Table 6). The class given is biochemical. The conditions noted are these: kinase printed on MBP-coated slide; 20 uM ATP, 30° C.; ProQ Diamond Microarray Stain; graded Strong/Weak/Negative.

CDK1/cyclin B: the “MBP Kinase Activity” value is on record as “Strong”.
